T1: γ subunit of the E. coli clamp loader complex (E. coli, UniProt P06710-2 1-431)
T1 sequence: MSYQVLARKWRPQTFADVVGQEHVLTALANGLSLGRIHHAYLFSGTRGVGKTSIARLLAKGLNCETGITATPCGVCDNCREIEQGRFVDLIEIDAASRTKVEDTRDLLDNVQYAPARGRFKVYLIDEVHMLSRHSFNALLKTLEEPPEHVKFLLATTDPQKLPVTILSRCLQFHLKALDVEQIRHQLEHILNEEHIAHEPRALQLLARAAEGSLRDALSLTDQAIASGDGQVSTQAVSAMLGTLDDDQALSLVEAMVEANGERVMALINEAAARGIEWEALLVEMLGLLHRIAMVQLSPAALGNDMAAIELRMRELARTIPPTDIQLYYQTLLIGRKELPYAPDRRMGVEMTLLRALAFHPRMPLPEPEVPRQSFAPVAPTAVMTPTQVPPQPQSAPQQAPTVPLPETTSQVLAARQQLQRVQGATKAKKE

B1: E. coli β2 sliding clamp (natural protein)
chain: MKFTVEREHLLKPLQQVSGPLGGRPTLPILGNLLLQVADGTLSLTGTDLEMEMVARVALVQPHEPGATTVPARKFFDICRGLPEGAEIAVQLEGERMLVRSGRSRFSLSTLPAADFPNLDDWQSEVEFTLPQATMKRLIEATQFSMAHQDVRYYLNGMLFETEGEELRTVATDGHRLAVCSMPIGQSLPSHSVIVPRKGVIELMRMLDGGDNPLRVQIGSNNIRAHVGDFIFTSKLVDGRFPDYRRVLPKNPDKHLEAGCDLLKQAFARAAILSNEKFRGVRLYVSENQLKITANNPEQEEAEEILDVTYSGAEMEIGFNVSYVLDVLNALKCENVRMMLTDSVSSVQIEDAASQSAAYVVMPMRL
B2: τ subunit of the E. coli clamp loader complex (natural protein)
chain: MSYQVLARKWRPQTFADVVGQEHVLTALANGLSLGRIHHAYLFSGTRGVGKTSIARLLAKGLNCETGITATPCGVCDNCREIEQGRFVDLIEIDAASRTKVEDTRDLLDNVQYAPARGRFKVYLIDEVHMLSRHSFNALLKTLEEPPEHVKFLLATTDPQKLPVTILSRCLQFHLKALDVEQIRHQLEHILNEEHIAHEPRALQLLARAAEGSLRDALSLTDQAIASGDGQVSTQAVSAMLGTLDDDQALSLVEAMVEANGERVMALINEAAARGIEWEALLVEMLGLLHRIAMVQLSPAALGNDMAAIELRMRELARTIPPTDIQLYYQTLLIGRKELPYAPDRRMGVEMTLLRALAFHPRMPLPEPEVPRQSFAPVAPTAVMTPTQVPPQPQSAPQQAPTVPLPETTSQVLAARQQLQRVQGATKAKKSEPAAATRARPVNNAALERLASVTDRVQARPVPSALEKAPAKKEAYRWKATTPVMQQKEVVATPKALKKALEHEKTPELAAKLAAEAIERDPWAAQVSQLSLPKLVEQVALNAWKEESDNAVCLHLRSSQRHLNNRGAQQKLAEALSMLKGSTVELTIVEDDNPAVRTPLEWRQAIYEEKLAQARESIIADNNIQTLRRFFDAELDEESIRPI

How the values were obtained:
Experiment in all cases: cryo-EM structure
[1] = target: T1, γ subunit of the E. coli clamp loader …
[2] = target: B1
[3] = target: B2
[4] = target: the molecule itself

Binder | binding result [1] | binding result [2] | binding result [3] | binding result [4]
δ’ subunit of the E. coli clamp loader complex (natural protein) MRWYPWLRPDFEKLVASYQAGRGHHALLIQALPGMGDDALIYALSRYLLCQQPQGHKSCGHCRGCQLMQAGTHPDYYTLAPEKGKNTLGVDAVREVTEKLNEHARLGGAKVVWVTDAALLTDAAANALLKTLEEPPAETWFFLATREPERLLATLRSRCRLHYLAPPPEQYAVTWLSREVTMSQDALLAALRLSAGSPGAALALFQGDNWQARETLCQALAYSVPSGDWYSLLAALNHEQAPARLHWLATLLMDALKRHHGAAQVTNVDVPGLVAELANHLSPSRLQAILGDVCHIREQLMSVTGINRELLITDLLLRIEHYLQPGVVLPVPHL | binds | binds | binds | 
B1 | binds |  | binds | 
B2 |  |  |  | binds
δ subunit of the E. coli clamp loader complex (natural protein) MIRLYPEQLRAQLNEGLRAAYLLLGNDPLLLQESQDAVRQVAAAQGFEEHHTFSIDPNTDWNAIFSLCQAMSLFASRQTLLLLLPENGPNAAINEQLLTLTGLLHDDLLLIVRGNKLSKAQENAAWFTALANRSVQVTCQTPEQAQLPRWVAARAKQLNLELDDAANQVLCYCYEGNLLALAQALERLSLLWPDGKLTLPRVEQAVNDAAHFTPFHWVDALLMGKSKRALHILQQLRLEGSEPVILLRTLQRELLLLVNLKRQSAHTPLRALFDKHRVWQNRRGMMGEALNRLSQTQLRQAVQLLTRTELTLKQDYGQSVWAELEGLSLLLCHKPLADVFIDG | binds |  |  | 

From publication PMC11436948 (Nature Communications, 2024)
